Measured values taken from US11040981B2, “Pyrrolotriazine compounds and methods of inhibiting TAM kinases” (Syros Pharmaceuticals, Inc., priority 2017, dated 2021).

Protein sequences, listed by entry. Tags and fused reporters are not part of them. Residues count along the entry.
UniProt P30530, 26-894 limits assumed: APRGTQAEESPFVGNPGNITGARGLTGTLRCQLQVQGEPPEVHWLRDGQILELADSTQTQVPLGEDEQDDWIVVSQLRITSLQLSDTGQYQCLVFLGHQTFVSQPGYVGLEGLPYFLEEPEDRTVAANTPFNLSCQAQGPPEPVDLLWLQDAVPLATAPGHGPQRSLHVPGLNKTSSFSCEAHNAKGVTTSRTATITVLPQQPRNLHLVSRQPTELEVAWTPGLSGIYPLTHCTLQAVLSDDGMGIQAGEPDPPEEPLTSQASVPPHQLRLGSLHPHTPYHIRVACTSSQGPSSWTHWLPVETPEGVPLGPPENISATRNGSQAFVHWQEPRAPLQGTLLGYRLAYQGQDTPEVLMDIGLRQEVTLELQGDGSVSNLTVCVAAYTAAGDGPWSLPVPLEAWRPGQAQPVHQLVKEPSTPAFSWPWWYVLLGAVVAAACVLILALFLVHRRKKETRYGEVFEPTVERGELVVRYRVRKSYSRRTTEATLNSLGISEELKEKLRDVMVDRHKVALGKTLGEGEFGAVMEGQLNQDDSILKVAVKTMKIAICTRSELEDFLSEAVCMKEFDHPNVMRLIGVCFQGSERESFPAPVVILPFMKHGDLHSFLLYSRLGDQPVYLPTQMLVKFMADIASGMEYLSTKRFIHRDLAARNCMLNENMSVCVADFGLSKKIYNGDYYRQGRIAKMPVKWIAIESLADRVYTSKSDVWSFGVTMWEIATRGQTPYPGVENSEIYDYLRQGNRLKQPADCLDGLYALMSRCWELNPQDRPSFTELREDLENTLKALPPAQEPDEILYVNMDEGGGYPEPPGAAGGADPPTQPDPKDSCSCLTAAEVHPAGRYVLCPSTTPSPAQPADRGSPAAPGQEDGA
UniProt P36888, 27-993 limits assumed: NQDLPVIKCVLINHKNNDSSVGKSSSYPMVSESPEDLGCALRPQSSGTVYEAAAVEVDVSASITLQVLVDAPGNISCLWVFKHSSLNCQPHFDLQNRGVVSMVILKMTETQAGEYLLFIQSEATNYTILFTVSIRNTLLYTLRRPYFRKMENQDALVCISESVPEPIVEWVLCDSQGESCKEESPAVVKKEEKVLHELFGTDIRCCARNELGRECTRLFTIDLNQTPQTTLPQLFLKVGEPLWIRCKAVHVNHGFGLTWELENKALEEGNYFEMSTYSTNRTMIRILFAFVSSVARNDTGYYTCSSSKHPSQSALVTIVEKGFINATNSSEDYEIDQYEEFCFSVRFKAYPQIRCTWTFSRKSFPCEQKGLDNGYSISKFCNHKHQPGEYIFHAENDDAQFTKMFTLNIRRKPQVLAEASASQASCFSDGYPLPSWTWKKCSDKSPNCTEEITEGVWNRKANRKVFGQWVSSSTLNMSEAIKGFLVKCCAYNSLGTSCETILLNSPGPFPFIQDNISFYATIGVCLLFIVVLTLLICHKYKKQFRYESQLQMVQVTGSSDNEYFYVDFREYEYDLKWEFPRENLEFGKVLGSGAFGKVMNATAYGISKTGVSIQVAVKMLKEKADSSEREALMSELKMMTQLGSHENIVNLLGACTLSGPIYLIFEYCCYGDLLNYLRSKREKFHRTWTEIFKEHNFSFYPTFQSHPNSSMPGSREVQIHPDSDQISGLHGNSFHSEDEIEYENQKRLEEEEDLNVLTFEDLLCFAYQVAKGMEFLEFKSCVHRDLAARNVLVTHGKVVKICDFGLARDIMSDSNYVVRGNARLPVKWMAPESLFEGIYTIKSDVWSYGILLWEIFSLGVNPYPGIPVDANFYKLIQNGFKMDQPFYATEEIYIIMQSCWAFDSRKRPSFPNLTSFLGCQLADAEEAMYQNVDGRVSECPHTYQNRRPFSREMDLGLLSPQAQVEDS
UniProt Q12866, 21-999 limits assumed: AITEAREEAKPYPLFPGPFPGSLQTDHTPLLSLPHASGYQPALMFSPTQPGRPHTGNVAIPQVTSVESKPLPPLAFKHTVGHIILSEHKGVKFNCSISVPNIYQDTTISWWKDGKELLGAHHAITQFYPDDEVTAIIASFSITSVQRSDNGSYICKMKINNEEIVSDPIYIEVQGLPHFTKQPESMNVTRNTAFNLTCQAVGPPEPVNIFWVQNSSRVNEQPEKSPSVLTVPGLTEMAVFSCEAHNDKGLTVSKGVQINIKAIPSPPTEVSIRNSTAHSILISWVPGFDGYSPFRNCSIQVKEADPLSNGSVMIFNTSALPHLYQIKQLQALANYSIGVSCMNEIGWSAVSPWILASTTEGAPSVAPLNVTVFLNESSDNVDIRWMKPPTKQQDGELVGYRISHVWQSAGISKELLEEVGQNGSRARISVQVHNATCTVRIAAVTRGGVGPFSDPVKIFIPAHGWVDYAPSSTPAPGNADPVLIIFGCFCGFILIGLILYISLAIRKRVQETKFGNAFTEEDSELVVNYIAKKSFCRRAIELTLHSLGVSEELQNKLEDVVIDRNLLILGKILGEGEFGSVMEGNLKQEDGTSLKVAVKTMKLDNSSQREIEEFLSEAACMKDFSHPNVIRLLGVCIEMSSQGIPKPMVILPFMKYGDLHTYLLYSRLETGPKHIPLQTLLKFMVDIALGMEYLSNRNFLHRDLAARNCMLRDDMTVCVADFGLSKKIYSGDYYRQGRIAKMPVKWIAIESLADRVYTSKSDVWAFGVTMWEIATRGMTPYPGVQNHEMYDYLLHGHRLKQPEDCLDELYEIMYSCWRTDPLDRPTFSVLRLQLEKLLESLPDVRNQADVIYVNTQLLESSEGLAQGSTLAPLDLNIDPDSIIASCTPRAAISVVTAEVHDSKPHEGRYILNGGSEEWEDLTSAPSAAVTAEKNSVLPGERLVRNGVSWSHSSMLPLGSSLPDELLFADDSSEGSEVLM
UniProt Q06418, 41-890 limits assumed: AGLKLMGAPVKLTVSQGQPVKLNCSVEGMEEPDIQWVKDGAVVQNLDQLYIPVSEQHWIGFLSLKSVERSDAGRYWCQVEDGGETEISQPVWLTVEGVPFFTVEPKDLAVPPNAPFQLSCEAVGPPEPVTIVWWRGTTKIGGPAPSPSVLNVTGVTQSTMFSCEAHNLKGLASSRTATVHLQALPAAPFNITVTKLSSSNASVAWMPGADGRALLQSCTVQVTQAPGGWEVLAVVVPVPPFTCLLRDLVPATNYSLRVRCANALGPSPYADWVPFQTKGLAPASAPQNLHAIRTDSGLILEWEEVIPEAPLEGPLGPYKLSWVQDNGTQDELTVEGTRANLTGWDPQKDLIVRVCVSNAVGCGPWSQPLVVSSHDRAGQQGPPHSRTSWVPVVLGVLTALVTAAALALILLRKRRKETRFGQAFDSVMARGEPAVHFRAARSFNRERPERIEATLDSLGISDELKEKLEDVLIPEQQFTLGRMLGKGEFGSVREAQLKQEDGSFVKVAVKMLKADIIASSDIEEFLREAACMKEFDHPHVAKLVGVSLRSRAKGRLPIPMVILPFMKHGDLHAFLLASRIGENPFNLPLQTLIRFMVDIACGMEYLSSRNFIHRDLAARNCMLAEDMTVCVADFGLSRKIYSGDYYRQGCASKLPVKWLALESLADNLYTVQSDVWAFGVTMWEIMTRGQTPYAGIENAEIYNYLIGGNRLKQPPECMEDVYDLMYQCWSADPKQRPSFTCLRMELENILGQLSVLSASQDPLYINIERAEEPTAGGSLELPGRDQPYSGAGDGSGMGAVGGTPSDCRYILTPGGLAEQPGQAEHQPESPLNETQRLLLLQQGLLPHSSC

These compounds were tested against AXL (Homo sapiens, UniProt P30530) (assay: TR-FRET kinase activity assay, AXL). Conditions: read-out: Axl IC50, ATP at Km, 60 minutes.
Method: (§1) IC50 values for compound inhibition of AXL, FLT3, MERTK and TYRO3 activity were determined by using a TR-FRET activity assay. A polypeptide substrate with a fluorescent label is phosphorylated on a tyrosine by each enzyme, where the now phosphorylated product is bound by a Europium-labeled antibody specific to that phosphorylation site. The proximity between the antibody and the substrate gives a signal known as TR-FRET. As the enzyme is inhibited by compound, less phosphorylated peptide product is made causing a decrease in overall signal.
(§2) Activity assays were performed in a 384-well, small volume, black microplates in an active enzyme volume of 10 μL and final developed volume of 20 μL. Final assay conditions are 50 mM HEPES pH 7.5, 10 mM MgCl2, 1 mM EGTA, 0.01% Brij 35 and 1 mM DTT all at RT. Enzyme, substrate labeled peptide and compound are mixed, and then the reaction is initiated with the addition of ATP at Km concentration for each enzyme. The reaction is allowed to run 60 minutes and then quenched with a 12.5 mM EDTA (ethylenediamine tetraacetic acid) solution. The plate is then developed with the addition of Europium labeled antibody for a final volume of 20 μL and is then incubated for 30 minutes in darkness. Plates are read in a Pherastar plate reader. Data is analyzed in GraphPad PRISM.
(§3) The results of these assays are shown in Table 1, below, wherein “No.” designates compound number (FIG. 1); “A” represents a value of ≤100 nM; “B” a value of >100 nM and ≤1 μM; “C” a value of >1 μM and ≤10 μM; “D” a value of >10 μM; “ND” is not determined. The ratio of Mer to FLT3 is calculated as follows: FLT3 IC50/Mer IC50. “+” represents a ratio of >2.0 and <10; “++” represents a ratio of between 10 and 100; and “+++” represents a ratio of >100.
`C[C@H](Nc1ncc2c(-c3cnn(C4COC4)c3)cc([C@H]3CC[C@H](O)CC3)n2n1)c1ccncc1` showed an IC50 of 100 to 1000 nM.
For `COC[C@H](C)Nc1ncc2c(C3CC4CCC(C3)N4C(=O)OC(C)(C)C)cc([C@H]3CC[C@H](O)CC3)n2n1` (some centres unmarked), the IC50 was < 100 nM.
For `COCC[C@H](C)Nc1ncc2c(-c3ccc(CN4CCOCC4)cc3)cc([C@H]3CC[C@H](O)CC3)n2n1`, the IC50 was 100 to 1000 nM.
In the case of `COC[C@H](C)Nc1ncc2c(-c3ccc(CN4CCOCC4)cc3)cc([C@H]3CC[C@H](N)CC3)n2n1`, the IC50 is reported as < 100 nM.
`C[C@@H](CC(F)(F)F)Nc1ncc2c(C3=CC[C@H](C(=O)N4CCOCC4)CC3)cc([C@H]3CC[C@H](O)CC3)n2n1` was tested, and the IC50 was < 100 nM.
With `C[C@@H](Nc1ncc2c(-c3cnn(C4COC4)c3)cc([C@H]3CC[C@H](O)CC3)n2n1)C1COC1` the IC50 was 1000 to 10000 nM.
`COC[C@H](C)Nc1ncc2c([C@H]3CCCN(S(C)(=O)=O)C3)cc([C@H]3CC[C@H](O)CC3)n2n1` was tested, and the IC50 was < 100 nM.

What follows are compounds tested against FLT3 (Homo sapiens, UniProt P36888) (assay: TR-FRET kinase activity assay, FLT3). Conditions: read-out: Flt3 IC50, ATP at Km, 60 minutes.
Compound `C[C@H](Nc1ncc2c(-c3cnn(C4COC4)c3)cc([C@H]3CC[C@H](O)CC3)n2n1)c1ccncc1` has an IC50 of 1000 to 10000 nM.
`COC[C@H](C)Nc1ncc2c(C3CC4CCC(C3)N4C(=O)OC(C)(C)C)cc([C@H]3CC[C@H](O)CC3)n2n1` (some centres unmarked) was tested, and the IC50 was 1000 to 10000 nM.
`COCC[C@H](C)Nc1ncc2c(-c3ccc(CN4CCOCC4)cc3)cc([C@H]3CC[C@H](O)CC3)n2n1` gave an IC50 of 100 to 1000 nM.
`COC[C@H](C)Nc1ncc2c(-c3ccc(CN4CCOCC4)cc3)cc([C@H]3CC[C@H](N)CC3)n2n1` was tested, and the IC50 was 100 to 1000 nM.
`C[C@@H](CC(F)(F)F)Nc1ncc2c(C3=CC[C@H](C(=O)N4CCOCC4)CC3)cc([C@H]3CC[C@H](O)CC3)n2n1` was tested, and the IC50 was < 100 nM.
Compound `C[C@@H](Nc1ncc2c(-c3cnn(C4COC4)c3)cc([C@H]3CC[C@H](O)CC3)n2n1)C1COC1` has an IC50 of 1000 to 10000 nM.
`COC[C@H](C)Nc1ncc2c([C@H]3CCCN(S(C)(=O)=O)C3)cc([C@H]3CC[C@H](O)CC3)n2n1` showed an IC50 of 1000 to 10000 nM.

Each compound was assayed against MERTK (Homo sapiens, UniProt Q12866) (assay: TR-FRET kinase activity assay, MERTK). Conditions: ratio calculated as FLT3 IC50/Mer IC50.
Method: as §1, §2, §3
In the case of `C[C@H](Nc1ncc2c(-c3cnn(C4COC4)c3)cc([C@H]3CC[C@H](O)CC3)n2n1)c1ccncc1`, the “FLT3/Mer ratio (FLT3 IC50/Mer IC50)” value is reported as “+++ (“+++” represents a ratio of >100)”.
For `COC[C@H](C)Nc1ncc2c(C3CC4CCC(C3)N4C(=O)OC(C)(C)C)cc([C@H]3CC[C@H](O)CC3)n2n1` (some centres unmarked), the “FLT3/Mer ratio (FLT3 IC50/Mer IC50)” value was “+++ (“+++” represents a ratio of >100)”.
For `C[C@@H](CC(F)(F)F)Nc1ncc2c(C3=CC[C@H](C(=O)N4CCOCC4)CC3)cc([C@H]3CC[C@H](O)CC3)n2n1`, the “FLT3/Mer ratio (FLT3 IC50/Mer IC50)” value was “++ (“++” represents a ratio of between 10 and 100)”.
`C[C@@H](Nc1ncc2c(-c3cnn(C4COC4)c3)cc([C@H]3CC[C@H](O)CC3)n2n1)C1COC1` was tested, and the “FLT3/Mer ratio (FLT3 IC50/Mer IC50)” value was “++ (“++” represents a ratio of between 10 and 100)”.
`COC[C@H](C)Nc1ncc2c([C@H]3CCCN(S(C)(=O)=O)C3)cc([C@H]3CC[C@H](O)CC3)n2n1` was tested, and the “FLT3/Mer ratio (FLT3 IC50/Mer IC50)” value was “+++ (“+++” represents a ratio of >100)”.

Same assay, conditions: ratio of Mer to FLT3: FLT3 IC50/Mer IC50
`COCC[C@H](C)Nc1ncc2c(-c3ccc(CN4CCOCC4)cc3)cc([C@H]3CC[C@H](O)CC3)n2n1` was tested, and the “FLT3/Mer ratio (FLT3 IC50/Mer IC50)” value was “++ (“++” represents a ratio of between 10 and 100)”.
For `COC[C@H](C)Nc1ncc2c(-c3ccc(CN4CCOCC4)cc3)cc([C@H]3CC[C@H](N)CC3)n2n1`, the “FLT3/Mer ratio (FLT3 IC50/Mer IC50)” value was “+++ (“+++” represents a ratio of >100)”.

Same assay, conditions: read-out: Mer IC50; TR-FRET activity assay, ATP at Km, 60 minutes
In the case of `C[C@H](Nc1ncc2c(-c3cnn(C4COC4)c3)cc([C@H]3CC[C@H](O)CC3)n2n1)c1ccncc1`, the IC50 is reported as < 100 nM.
With `COC[C@H](C)Nc1ncc2c(C3CC4CCC(C3)N4C(=O)OC(C)(C)C)cc([C@H]3CC[C@H](O)CC3)n2n1` (some centres unmarked) the IC50 was < 100 nM.
For `COCC[C@H](C)Nc1ncc2c(-c3ccc(CN4CCOCC4)cc3)cc([C@H]3CC[C@H](O)CC3)n2n1`, the IC50 was < 100 nM.
`COC[C@H](C)Nc1ncc2c(-c3ccc(CN4CCOCC4)cc3)cc([C@H]3CC[C@H](N)CC3)n2n1` was tested, and the IC50 was < 100 nM.
For `C[C@@H](CC(F)(F)F)Nc1ncc2c(C3=CC[C@H](C(=O)N4CCOCC4)CC3)cc([C@H]3CC[C@H](O)CC3)n2n1`, the IC50 was < 100 nM.
`C[C@@H](Nc1ncc2c(-c3cnn(C4COC4)c3)cc([C@H]3CC[C@H](O)CC3)n2n1)C1COC1` showed an IC50 of 100 to 1000 nM.
With `COC[C@H](C)Nc1ncc2c([C@H]3CCCN(S(C)(=O)=O)C3)cc([C@H]3CC[C@H](O)CC3)n2n1` the IC50 was < 100 nM.

What follows are compounds tested against TYRO3 (Homo sapiens, UniProt Q06418) (assay: TR-FRET kinase activity assay, TYRO3). Conditions: read-out: Tyro3 IC50, ATP at Km, 60 minutes.
Method: as §1, §2, §3
For `C[C@H](Nc1ncc2c(-c3cnn(C4COC4)c3)cc([C@H]3CC[C@H](O)CC3)n2n1)c1ccncc1`, the IC50 was < 100 nM.
In the case of `COC[C@H](C)Nc1ncc2c(C3CC4CCC(C3)N4C(=O)OC(C)(C)C)cc([C@H]3CC[C@H](O)CC3)n2n1` (some centres unmarked), the IC50 is reported as < 100 nM.
For `COCC[C@H](C)Nc1ncc2c(-c3ccc(CN4CCOCC4)cc3)cc([C@H]3CC[C@H](O)CC3)n2n1`, the IC50 was < 100 nM.
In the case of `COC[C@H](C)Nc1ncc2c(-c3ccc(CN4CCOCC4)cc3)cc([C@H]3CC[C@H](N)CC3)n2n1`, the IC50 is reported as < 100 nM.
`C[C@@H](CC(F)(F)F)Nc1ncc2c(C3=CC[C@H](C(=O)N4CCOCC4)CC3)cc([C@H]3CC[C@H](O)CC3)n2n1` was tested, and the IC50 was < 100 nM.
In the case of `C[C@@H](Nc1ncc2c(-c3cnn(C4COC4)c3)cc([C@H]3CC[C@H](O)CC3)n2n1)C1COC1`, the IC50 is reported as < 100 nM.
For `COC[C@H](C)Nc1ncc2c([C@H]3CCCN(S(C)(=O)=O)C3)cc([C@H]3CC[C@H](O)CC3)n2n1`, the IC50 was < 100 nM.
